The record followed here is patent US11065294B2, “Composition including oriental medicine to treat neoplastic disease” (COMPREHENSIVE AND INTEGRATIVE MEDICINE INSTITUTE, priority 2013, dated 2021).

The experiment deals with MCF-7 cell xenograft. The experiment in a line: MCF-7 xenograft nude mice, 35 days oral: tamoxifen 20 mg/kg single, JEKHT 500 mg/kg single, or co-administered within 5 minutes; tumor, immune and cachexia readouts. In kind it is in vivo, Balb/c Slc nu/nu mice. Particulars: tumor mass; JEKHT dose = table row. From the text:
In Example 3, as laboratory animals, Balb/c Slc nu/nu mice (5-week-old females, SLC, Shizuoka, Japan) were used. Seventy three nude mice were purchased, and sixty seven xenografted mice having a tumor volume of 50 mm^3 or more 14 days after MCF-7 cells were xenografted into subcutaneous parts of a right hip of each mouse were selected, and divided into groups of seven mice each.
The xenografted MCF-7 cells were maintained by sub-culturing the MCF-7 cells (American Type Culture Collection Center, VA, USA) using 10% fetal bovine serum (FBS)-added RPMI 1640 (Gibco, Grand Island, N.Y., USA) media in a 5% C02 incubator at 37° C., and a solid tumor mass was formed by preparing a tumor cell suspension to have a cell concentration of 1.0×10^8 cell/ml, and grafting 0.2 ml (2×10^7 cell/mouse) of the MCF-7 tumor cell suspension on a subcutaneous part of a right hip of each mouse.

The structures appear in SMILES notation. Counter-ions that a name gives are not always drawn.

Consider `CC/C(=C(\c1ccccc1)c1ccc(OCCN(C)C)cc1)c1ccccc1` [Tamoxifen, Tamoxifen citrate], for which the “Caspase-3 immunoreactive cell percentages” value is reported as 21.86 ± 4.22 %/tumor cells, the “PARP immunoreactive cell percentages” value is 22.14 ± 4.26 %/tumor cells and the “TNF-α immunoreactive cell percentages” value came out at 3.71 ± 1.80 %/tumor cells.
